{"source": "patent US20110091931A1", "about": "“Methods and Kits for Determining Oxygen Free Radical (OFR) Levels in Animal and Human Tissues as a Prognostic Marker for Cancer and Other Pathophysiologies” (COLBY PHARMACEUTICAL COMPANY, priority 2009, published 2011)", "system": "LNCaP cells", "experiment": "HPLC quantitation of polyamine and acetyl polyamine levels in LNCaP cells", "type": "cell-based, human", "details": "androgen treated LNCaP cells", "source_text": "This method is routinely used in the analytical laboratory of the core facility of Cancer Centers and was accessible for quantitative assays necessary for the PK/PD determinations. […] Each data point was an average of two determinations where sample cell pellets were collected from three independent experiments."}
{"substance": "N,N′-bis(butadienyl)-1,4-butanediamine [CPC-200]", "values": [{"measurement": "effect on androgen-induced SSAT gene expression and/or SSAT enzymatic activity", "result": "little effect"}]}
